Measurements: PMC4580323, “^18F-FP-PEG2-β-Glu-RGD2: A Symmetric Integrin αvβ3-Targeting Radiotracer for Tumor PET Imaging” (PLoS ONE, 2015)

Tested on: C6 brain glioma
Conditions: rat, in vivo

^18F-FDG
uptake ratio of glioma tissue to gray matter: 1.45 ± 0.21 %ID/g | uptake ratio of glioma tissue to white matter: 2.24 ± 0.42 %ID/g
